# Laboratory results from patent publication US20120108593A1, “Extreme temperature aqueous decontamination composition” (published 2012).
# Test: Live agent NMR testing (31P) against VX
# Settings: 25° C., 10 μL agent with 500 μL solution (FIG. 1)
structure (smiles),measurement,value
O=c1[nH]c(=O)n(Cl)c(=O)n1Cl,decontamination of VX agent,completely decontaminated
